# “And” between values parts separate entries of the source, which are not always exact repeats. Equal entries are not always repeated.
# Columns and labels:
# [1] = system: SK-BR-3 cells; experiment: In vitro cell proliferation assay (CellTiter-Glo), SK-BR-3 cells; format: cell-based, human; settings: ADC incubated 3-5 days
# [2] = system: MDA-MB-468 cells; experiment: In vitro cell proliferation assay (CellTiter-Glo), MDA-MB-468 cells; format: cell-based; settings: MDA-MB-468 cells do not overexpress HER2 (FIG. 10)
# [3] = Cynomolgus monkey toxicity/safety; format: in vivo, Macaca fascicularis (cynomolgus monkey)
# [4] = system: MCF-7 cells; experiment: In vitro cell proliferation assay (CellTiter-Glo), MCF-7 cells; format: cell-based; settings: MCF-7 cells do not overexpress HER2 (FIG. 9)
# [5] = system: BT474 cells; experiment: In vitro cell proliferation assay (CellTiter-Glo), BT-474 cells; format: cell-based; settings: ADC incubated 3-5 days
# [6] = Plasma clearance pharmacokinetics in rats; format: in vivo, Sprague-Dawley rats; settings: rat, 2 mg/kg IV
# [7] = Acute toxicity in rats; format: in vivo, Sprague-Dawley rats
# [8] = Study Day 5, 2105 μg MMAF/m^2 (groups 3, 5, 7, 8)
# [9] = female rats, single IV dose, 2105 μg MMAF/m^2 (groups 3, 5, 7, 8)
substance,measurement,setting,value
H-MC-(D)val-(D)cit-PAB-MMAE: trastuzumab-MMAE conjugate with (D)val-(D)cit linker,IC50 (μg ADC/ml),[1],0.02 μg ADC/ml
H-MC-(D)val-(L)cit-PAB-MMAE: trastuzumab-MMAE conjugate with (D)val-(L)cit linker,IC50 (μg ADC/ml),[1]; 3.2 MMAE/Ab,0.003 μg ADC/ml
same,IC50 (μg ADC/ml),[1]; 8.4 MMAE/Ab,0.0015 μg ADC/ml
H-MC-vc-PAB-MMAE: trastuzumab conjugated via a cysteine to MC-val-cit-PAB-MMAE; preparations of different loading,IC50 (μg ADC/ml),[1]; 4.1 MMAE/Ab,0.010 μg ADC/ml
same,IC50 (μg ADC/ml),[1]; 7.5 MMAE/Ab,0.0025 μg ADC/ml
same,inhibition of the proliferation of MDA-MB-468 cells,[2],did not inhibit
same,peripheral blood granulocytes,"[3]; after a single dose of 1100 mg/m^2, complete recovery 14 days post-dose",depletion
same,liver toxicity,"[3]; cynomolgus monkey, any of the dose levels tested",no evidence of liver toxicity
same,inhibition of the proliferation of MCF-7 cells,[4],did not inhibit
same,IC50 (μg ADC/ml),[5]; 3.3 MMAE/Ab,0.02 μg ADC/ml
same,IC50 (μg ADC/ml),[5]; 4.1 MMAE/Ab,0.015 μg ADC/ml
same,IC50 (μg ADC/ml),[5]; 7.5 MMAE/Ab,0.0025 μg ADC/ml
HER F(ab′)2-MC-vc-MMAE: MC-vc-MMAE conjugate of Herceptin F(ab′)2,% Conj.,[6]; AUCinf of ADC ÷ AUCinf total Ab,95%
same,AUCinf,[6]; analyte Conj. (ADC),8.8 µg·days/mL
same,Cmax,[6]; analyte Conj. (ADC),36900 ng/mL
same,T½ Term.,[6]; analyte Conj. (ADC),6.96 h
same,AUCinf,[6]; analyte Total Ab,9.3 µg·days/mL
same,CL,[6]; analyte Total Ab,0.151 mL/min/kg
same,Cmax,[6]; analyte Total Ab,34400 ng/mL
same,T½ Term.,[6]; analyte Total Ab,8.4 h
H-MC-vc-PAB-MMAF: trastuzumab conjugated via a cysteine to MC-val-cit-PAB-MMAF 9; preparations of different loading,IC50 (μg ADC/ml),[1]; 3.7 MMAF/Ab,0.010 μg ADC/ml
same,IC50 (μg ADC/ml),[1]; 3.8 MMAF/Ab,0.0035-0.01 μg ADC/ml and 0.007 μg ADC/ml
same,IC50 (μg ADC/ml),[1]; 4.4 MMAF/Ab,0.006-0.007 μg ADC/ml
same,IC50 (μg ADC/ml),[1]; 4.8 MMAF/Ab,0.006 μg ADC/ml
same,inhibition of the proliferation of MDA-MB-468 cells,[2],did not inhibit
same,change in body weights versus group 1 (Vehicle) animals,[7]; [8],statistically different
same,body weight during the study,[7]; [9],lost weight
same,liver enzymes,[3]; at 550 (transient) and 880 mg/m^2 dose level,elevation of liver enzymes
same,granulocytopenia,[3]; cynomolgus monkey,no evidence of granulocytopenia
same,inhibition of the proliferation of MCF-7 cells,[4],did not inhibit
same,IC50 (μg ADC/ml),[5]; 3.7 MMAF/Ab,0.02 μg ADC/ml
same,IC50 (μg ADC/ml),[5]; 3.8 MMAF/Ab,0.015 μg ADC/ml and 0.02-0.05 μg ADC/ml
same,IC50 (μg ADC/ml),[5]; 4.4 MMAF/Ab,0.01 μg ADC/ml
H-MC-MMAE: trastuzumab conjugated to maleimidocaproyl-monomethyl auristatin E,IC50 (μg ADC/ml),[1]; 4.6 MMAE/Ab,0.05 μg ADC/ml
same,IC50 (μg ADC/ml),[1]; 8.8 MMAE/Ab,0.018 μg ADC/ml
same,IC50 (μg ADC/ml),[5]; 4.6 MMAE/Ab,0.07 μg ADC/ml
same,IC50 (μg ADC/ml),[5]; 8.8 MMAE/Ab,0.04 μg ADC/ml
"H-vc-MMAE, linked via a lysine [lys]: trastuzumab val-cit MMAE conjugate linked via a lysine",IC50 (μg ADC/ml),[1],0.002 μg ADC/ml
"H-MC-(N-Me)vc-PAB-MMAF, 3.9 MMAF/Ab: trastuzumab-MMAF conjugate with N-methyl-valine citrulline linker, modified to prevent cleavage by cathepsin B",IC50 (μg ADC/ml),[1],0.0035 μg ADC/ml
same,inhibition of the proliferation of MDA-MB-468 cells,[2],did not inhibit
same,change in body weights versus group 1 (Vehicle) animals,"[7]; Study Day 5, 840 μg MMAF/m^2 (groups 2, 4, 6)",statistically different
same,change in body weights versus group 1 (Vehicle) animals,[7]; [8],statistically different
same,body weight during the study,"[7]; female rats, single IV dose, 840 μg MMAF/m^2 (groups 2, 4, 6)",gained weight
same,body weight during the study,[7]; [9],lost weight
same,toxicity profile,"[7]; female rats, single IV dose, 840 and 2105 μg MMAF/m^2, necropsy day 5",most evident
same,inhibition of the proliferation of MCF-7 cells,[4],did not inhibit
same,IC50 (μg ADC/ml),[5],0.010 μg ADC/ml
"H-phe-lys-MMAE, linked via a lysine [lys]: trastuzumab phe-lys MMAE conjugate linked via a lysine",IC50 (μg ADC/ml),[1],0.0015 μg ADC/ml
"H-MC-(L)val-(L)cit-PAB-MMAE, 8.7 MMAE/Ab: trastuzumab-MMAE conjugate with (L)val-(L)cit linker",IC50 (μg ADC/ml),[1],0.0003 μg ADC/ml
Trastuzumab: recombinant DNA-derived humanized monoclonal antibody that binds HER2 [reference compound],IC50 (μg ADC/ml),[1],0.083 μg ADC/ml

# Source: patent US7964567B2, “Monomethylvaline compounds capable of conjugation to ligands” (Seattle Genetics, Inc., priority 2003, dated 2011)
